Reference: patent US6310093A (priority 1998, dated 2001)

By UniProt entry, the sequences of proteins in these tests, tags left out. Where a name states a change or a piece, a line headed by the entry shows the natural chain unless it says otherwise.
UniProt D3Z7P3: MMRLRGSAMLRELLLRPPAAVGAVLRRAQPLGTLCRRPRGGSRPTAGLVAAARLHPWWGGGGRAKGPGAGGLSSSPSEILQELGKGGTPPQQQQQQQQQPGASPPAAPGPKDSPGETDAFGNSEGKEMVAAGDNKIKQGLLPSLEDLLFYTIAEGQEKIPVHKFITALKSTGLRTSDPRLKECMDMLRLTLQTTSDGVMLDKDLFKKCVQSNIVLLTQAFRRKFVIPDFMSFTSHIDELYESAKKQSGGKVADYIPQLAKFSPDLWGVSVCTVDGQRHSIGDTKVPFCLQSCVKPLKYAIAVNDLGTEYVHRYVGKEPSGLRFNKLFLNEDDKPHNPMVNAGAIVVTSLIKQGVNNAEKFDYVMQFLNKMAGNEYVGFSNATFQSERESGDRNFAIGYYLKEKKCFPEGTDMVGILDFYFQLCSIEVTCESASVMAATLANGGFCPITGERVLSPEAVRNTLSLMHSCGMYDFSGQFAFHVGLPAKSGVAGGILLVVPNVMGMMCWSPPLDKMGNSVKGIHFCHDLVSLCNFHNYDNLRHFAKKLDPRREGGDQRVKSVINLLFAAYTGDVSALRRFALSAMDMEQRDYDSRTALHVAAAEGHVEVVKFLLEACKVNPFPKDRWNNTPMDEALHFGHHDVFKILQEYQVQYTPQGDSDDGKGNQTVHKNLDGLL

Key:
[1] = test system: pure neuronal cultures (cortical neurons) exposed to glutamine; conditions: 30 μM, 2 mM glutamine
[2] = biological target: glutaminase in live (intact) neurons (Mus musculus, UniProt D3Z7P3); conditions: then Gln

**Q.** Which “glutamine hydrolysis / glutamate production by healthy neurons exposed to glutamine (in words)” value [1] does the source give for p-(chloromercuri)phenyl sulfonic acid here?
**A.** delayed hydrolysis of glutamine was prevented

**Q.** What about the “glutamine hydrolysis / glutamate production by healthy neurons exposed to glutamine (in words)” value ([1]; listed as PCMPS) of the same substance?
**A.** prevented the exponentially increasing rate of glutamate production

**Q.** And the “glutamate production after neuronal death” value ([2]; 1h 30 μM pCMPS then NMDA)?
**A.** 0.75 ± 0.07 μM Glu/min

**Q.** What about the “glutamate production after neuronal death” value ([2]; .25h 30 μM pCMPS then NMDA) of the same substance?
**A.** 0.88 ± 0.13 μM Glu/min

Read-outs that look alike come from different tables or passages of the source.
